Data on 52 compounds can be found in PubChem BioAssay AID624126 (The Scripps Research Institute Molecular Screening Center, 2012).

Chains of the proteins cited; added tags and fusions are not shown.
UniProt P08173, whole entry: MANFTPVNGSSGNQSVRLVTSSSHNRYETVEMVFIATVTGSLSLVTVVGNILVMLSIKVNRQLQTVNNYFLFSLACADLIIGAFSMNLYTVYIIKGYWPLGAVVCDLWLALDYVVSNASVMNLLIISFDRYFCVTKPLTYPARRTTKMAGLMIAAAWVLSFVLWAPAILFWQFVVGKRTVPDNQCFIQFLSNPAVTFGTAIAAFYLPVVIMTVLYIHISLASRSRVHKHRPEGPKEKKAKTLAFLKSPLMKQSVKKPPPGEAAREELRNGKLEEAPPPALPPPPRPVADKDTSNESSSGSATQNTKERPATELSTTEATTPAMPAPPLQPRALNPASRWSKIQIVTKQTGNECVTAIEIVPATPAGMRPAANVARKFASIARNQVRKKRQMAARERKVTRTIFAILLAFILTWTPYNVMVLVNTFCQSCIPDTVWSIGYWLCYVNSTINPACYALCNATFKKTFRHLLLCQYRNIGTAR

Only a part is listed here, and it is no random draw. Some salts or complexes appear as unconnected parts, following the source record. The source made the active and inactive calls.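 The calls were made as follows: active = activation above its plate's cutoff, the mean activation of sample wells plus 3 SD; inactive = the rest.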

This experiment has as its target Muscarinic acetylcholine receptor M4 (Homo sapiens) (UniProt P08173). The experiment in a line: human M4 muscarinic receptor positive allosteric modulators, primary screen, CHO-K1 cells, Fluo-8 calcium fluorescence (AID 624126). To be noted: CHO-K1 hM4/Gqi5, Fluo-8 calcium fluorescence, ACh EC20; at 3 µM; stronger effect = higher value; 0% = ACh EC20, 100% = maximal ACh.
Take `COc1ccccc1OP(C)(=O)Nc1ccc(C)c(C)c1` (configuration not stated): the activation was inactive: -11.9%. With `COc1ccc(OP(C)(=O)Nc2ccccc2Br)cc1` (configuration not stated), the activation is inactive: 18.4%. `CP(=O)(OCCOc1ccccc1)OCCOc1ccccc1`: the activation is inactive: 3.5%. To `CP(=O)(Nc1ccc(Cl)cc1Cl)Oc1ccccc1` (configuration not stated) belongs inactive: -2.57%. The figure for `CCCCCCCCCCCCCCCC1C[N+](C)(C)CCOP(C)(=O)O1` (configuration not stated) is inactive: -10.7%; for `COc1ccccc1OP(C)(=O)Nc1ccc(Br)cc1` (configuration not stated) it is inactive: -3.81%. The figure for `COc1ccc(OP(C)(=O)Nc2ccccn2)cc1` (configuration not stated) is inactive: 4.73%. On to `CN(C)CCOC(=O)C(O)(c1ccccc1)C1CCCC1` (configuration not stated), for which the activation was inactive: -18.8%. To `O=[N+]([O-])c1cc([N+](=O)[O-])c(Nc2ccccn2)c([N+](=O)[O-])c1` belongs inactive: -7.73%; to `Cc1c(NP(C)(=O)Oc2ccc(C(C)C)cc2)c(=O)n(-c2ccccc2)n1C` (configuration not stated), inactive: 1.54%; to `COc1ccccc1OP(C)(=O)Nc1ccc(C)cc1C` (configuration not stated), inactive: 0.46%.

Consider `CP(=O)(Nc1ccccn1)Oc1ccccc1` (configuration not stated), for which the activation was inactive: 2.73%. The figure for `CCc1ccc(OP(C)(=O)O)cc1` is inactive: 22.2%; for `COc1ccc(OP(C)(=O)Nc2ccc(Br)cc2)cc1` (configuration not stated) it is inactive: -4.3%.

Turning to `CCN(CC)CC(O)COC(=O)C(O)(c1ccccc1)C1CCCCC1` (configuration not stated), the activation is inactive: -19.3%. `O=C(OCCCN1CCCC1)C(O)(c1ccccc1)C1CCCCC1` (configuration not stated): the activation is inactive: -55.4%. To `COc1ccccc1OP(C)(=O)Nc1c(C)n(C)n(-c2ccccc2)c1=O` (configuration not stated) belongs inactive: 1.95%. `CCc1ccc(OP(C)(=O)Nc2cccnc2)cc1` (configuration not stated): the activation was inactive: 6.86%.

On to `CP(=O)(Oc1ccccc1)N1CCOC1=O` (configuration not stated), for which the activation was inactive: 4.95%. `CC(C)(C)c1ccc(OP(C)(=O)O)cc1`: the activation was inactive: 6.79%. For the compound `COc1ccccc1OP(C)(=O)Nc1ccccc1Br` (configuration not stated), the activation is inactive: 7.73%. Turning to `CP(=O)(Nc1ccc(Cl)cc1)Oc1ccc(F)cc1` (configuration not stated), the activation is inactive: 4.21%. The figure for `CN(C)C(=O)c1c([N+](=O)[O-])cc([N+](=O)[O-])cc1[N+](=O)[O-]` is inactive: 11.6%; for `CCOC(=O)c1ccc(NP(C)(=O)Oc2ccc(Cl)cc2)cc1` (configuration not stated) it is inactive: 2.84%; for `CP(=O)(OC12CC3CC(CC(C3)C1)C2)OC12CC3CC(CC(C3)C1)C2` it is inactive: 15%. To `COc1ccc(OP(C)(=O)Nc2cccc(Br)c2)cc1` (configuration not stated) belongs inactive: -7.25%; to `CN(C)C1(CNC(=O)c2ccc(Cl)c(S(N)(=O)=O)c2)CCCCC1`, inactive: 2.03%; to `CN(C)CCOC(=O)C(O)(c1ccccc1)C1CCCCC1` (configuration not stated), inactive: -21%. To `COc1ccc(NP(C)(=O)Oc2ccccc2OC)cc1` (configuration not stated) belongs inactive: 5.87%; to `O=[N+]([O-])c1ccc(OP2(=O)COCCO2)cc1` (configuration not stated), inactive: 9.73%. On to `Cc1cc(-c2cccc3ccccc23)c(C)cn1.O=[N+]([O-])c1cc([N+](=O)[O-])c(O)c([N+](=O)[O-])c1`, for which the activation is inactive: 2.56%. To `O=[N+]([O-])c1cc([N+](=O)[O-])c(NCC2CCS(=O)(=O)C2)c([N+](=O)[O-])c1` (configuration not stated) belongs inactive: 2.04%.

In the case of `Cc1c(C(c2ccc3c(c2)OCO3)c2c(C)n(C)n(-c3ccccc3)c2=O)c(=O)n(-c2ccccc2)n1C.O=[N+]([O-])c1cc([N+](=O)[O-])c(O)c([N+](=O)[O-])c1`, the activation is inactive: -1.85%.

As to `CP(=O)(Nc1ccc(SC(F)(F)F)cc1)Oc1ccc(F)cc1` (configuration not stated), the activation was inactive: -12.7%. Regarding `CCOP(C)(=S)SCC(=O)NC(C)(CC)C(=O)O` (configuration not stated), the activation was inactive: 5%. The figure for `CP(=O)(Nc1ccc2c(c1)OCCO2)Oc1ccccc1` (configuration not stated) is inactive: 3.11%.

Turning to `Cc1ccccc1NP(C)(=O)Nc1ccccc1C`, the activation is inactive: -0.8%. To `O=[N+]([O-])c1cc([N+](=O)[O-])c(C(F)(F)F)c([N+](=O)[O-])c1O` belongs inactive: 0.85%; to `O=[N+]([O-])c1cc([N+](=O)[O-])c(Nc2ccc(Cl)cc2)c([N+](=O)[O-])c1`, inactive: -5.92%. The figure for `CP(=O)(Nc1ccccc1F)Oc1ccccc1` (configuration not stated) is inactive: 6.99%.

In the case of `CC(C)c1ccc(OP(C)(=O)Nc2ccc(SC(F)(F)F)cc2)cc1` (configuration not stated), the activation is inactive: 0.46%. To `O=C(OC1CN2CCC1CC2)c1ccc([N+](=O)[O-])cc1` (configuration not stated) belongs inactive: 14.8%; to `O=C(OCCN1CCN(CCOCc2ccccc2)CC1)C(O)(c1ccccc1)c1ccccc1`, inactive: -43.9%.

`COc1ccc2c(c1O)-c1c(O)c(OC)cc3c1[C@H](C2)[N+](C)(C)CC3.O=[N+]([O-])c1cc([N+](=O)[O-])c([O-])c([N+](=O)[O-])c1[O-]`: the activation was inactive: 5.08%. To `CCN(CC)CCCNc1ccccc1[N+](=O)[O-].O=[N+]([O-])c1cc([N+](=O)[O-])c(O)c([N+](=O)[O-])c1` belongs inactive: -7.96%.

Turning to `CCOC(=O)c1ccc(NP(C)(=O)Oc2ccc(F)cc2)cc1` (configuration not stated), the activation was inactive: -4.31%. `COc1ccc(OP(C)(=O)Nc2ccc(SC(F)(F)F)cc2)cc1` (configuration not stated): the activation was inactive: -6.23%. To `Cc1c([N+](=O)[O-])cc([N+](=O)[O-])c(Br)c1[N+](=O)[O-]` belongs inactive: 6.53%; to `CCN(CC)CCCOC(=O)C(O)(c1ccccc1)C1CCCCC1` (configuration not stated), inactive: -18.5%; to `CP(=O)(Nc1ccccc1)Oc1ccc(F)cc1` (configuration not stated), inactive: 1.57%.

`O=[N+]([O-])c1cc([N+](=O)[O-])c(OC2CCCCC2O)c([N+](=O)[O-])c1` (configuration not stated): the activation is inactive: 1.56%. To `CCCCCOc1ccc(NP(C)(=O)Oc2ccc(Cl)cc2Cl)cc1` (configuration not stated) belongs inactive: -1.78%.
